Experimental data: PubChem BioAssay AID624418 (National Center for Advancing Translational Sciences (NCATS), 2012)
Several values for one entry are separate records, joined by “and”; a condition that tells them apart may be missing. Identical values can stand only once. The list shows a part of the results, in another mix than the full data. Some results for these compounds are left out of this collection, so the calls shown say nothing about other tests. Inconclusive results are not listed. Activity calls are given as the source filed them. Calls follow the shape of the dose curve; as a rule, active = well fitted inhibition curve with a large enough effect; inconclusive = small, poorly fitted or top-dose-only effect, or another doubt; inactive = no such curve, though single readings can be large or run the other way.
% is scaled to controls: 0 for no effect and ±100 for the full control effect.

Experiment: qHTS of GLP-1 Receptor Inverse Agonists: Cytotox Screen;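 also: loss of luciferase light is scored as toxicity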
Conditions: HEK293 cAMP-luciferase reporter cells, luminescence, 24 h; at 38.3 µM (top of the series)
Excerpt: The overall goal of this project was to develop a novel assay for discovering small molecule ligands for class B1 G protein-coupled receptors (GPCRs). Very few agonists (or inverse agonists) with generally weak activity for this entire group of physiologically important receptors are known to date. To establish proof-of-principle that this critical bottleneck can be overcome with a suitable screening approach, our studies focused on the class B1 receptor for glucagon-like peptide-1 (GLP-1R), a potential therapeutic target for diabetes and neurodegenerative disease.
The assay was developed using a cell-based functional readout. Toward this goal, stably transfected HEK293 cell clones were established that co-express (i) a cAMP-responsive luciferase reporter gene, and (ii) constitutively active GLP-1R that upon ligand interaction inhibit (inverse agonists) the luciferase activity. In addition, two control cell lines were developed: (i) one that express only the cAMP-responsive reporter gene to enable initial exclusion of GLP-1R independent effects of candidate probes; and (ii) one with the reported gene cloned with another constitutively active orphan receptor GPR119 to enable exclusion of GLP-1R independent inhibitor effects of candidate inverse agonists.
To that end, this assay was optimized for 1536-well format and screened against the MLSMR. Then the same collection was run in this cytotoxicity assay where inhibition was the undesired outcome.
NIH Molecular Libraries Probe Production Network [MLPCN]
NIH Chemical Genomics Center [NCGC]
PI Name: Martin Beinborn, Tufts Medical Center
Six ul of cell suspension (200 cells/uL in DMEM + 10% Nu serum + 1% pen-strep) is dispensed in a white solid 1536-well plate. The plates are incubated for 12 hours at 37 deg C at 5% CO2 followed by addition of 23 nL compounds. After 24 hr incubation at 37 deg C and 5% CO2, 3 uL of luciferase assay detection reagent is added. A luminescence read is obtained on the PerkinElmer Viewlux after 12 min incubation at room temperature.
For `CN(C)C1(CNC(=O)c2ccc(Br)cc2)CCCCC1`, the activity change, negative = inhibition was inactive: 0.77%.
For `COc1cc(C(=O)NCC2(N(C)C)CCCCC2)c([N+](=O)[O-])cc1OC`, the activity change, negative = inhibition was inactive: 1.74%.
For `COc1ccc(Cl)cc1C(=O)NCC1(N(C)C)CCCCC1`, the activity change, negative = inhibition was inactive: 5.92%.
In the case of `COc1cccc(C(=O)NCC2(N3CCCCC3)CCCCC2)c1`, the activity change, negative = inhibition is reported as inactive: -10.1%.
For `COc1ccc(C(=O)NCC2(N(C)C)CCCCC2)cc1Cl`, the activity change, negative = inhibition was inactive: 3.21%.
In the case of `O=C(NCC1(N2CCCCC2)CCCCC1)c1cccc(Cl)c1`, the activity change, negative = inhibition is reported as inactive: -14.8%.
For `COc1cccc(C(=O)NCC2(N3CCOCC3)CCCCC2)c1`, the activity change, negative = inhibition was inactive: -10.6%.
In the case of `O=C(OC1CN2CCC1CC2)C(CO)(c1ccccc1)c1ccccc1` (stereo unspecified), the activity change, negative = inhibition is reported as inactive: -0.539%.
In the case of `CC(C)COc1ccc(C(=O)NCC2(N(C)C)CCCCC2)cc1`, the activity change, negative = inhibition is reported as inactive: -9.78%.
In the case of `C=C(C)C#CC(O)(C(=O)OC1CCN(C)CC1)c1ccccc1` (stereo unspecified), the activity change, negative = inhibition is reported as inactive: -5.32%.
With `COc1ccc(Br)c(C(=O)NCC2(N3CCCCC3)CCCCC2)c1` the activity change, negative = inhibition was inactive: -8.56%.
For `Cc1cccc(C(=O)NCC2(N(C)C)CCCCC2)c1`, the activity change, negative = inhibition was inactive: -12.2%.
In the case of `COc1cc(C(=O)NCC2(N(C)C)CCCCC2)cc(OC)c1OC`, the activity change, negative = inhibition is reported as inactive: -0.371%.
For `O=C(OCCN1CCCC1)C(O)(c1ccccc1)c1ccccc1`, the activity change, negative = inhibition was inactive: 1.73%.
With `CC(C)Oc1ccc(C(=O)NCC2(N(C)C)CCCCC2)cc1` the activity change, negative = inhibition was inactive: 5.48% and inactive: 5.14%.
With `CN(C)c1cccc(C(=O)NCC2(N(C)C)CCCCC2)c1` the activity change, negative = inhibition was inactive: -0.505%.
With `O=C(NCC1(N2CCCCC2)CCCCC1)c1cc([N+](=O)[O-])ccc1Cl` the activity change, negative = inhibition was inactive: -26%.
With `CN1[C@@H]2CC[C@H]1CC(OC(=O)C(O)(c1ccccc1)c1ccccc1)C2` (stereo partly specified) the activity change, negative = inhibition was inactive: -5.84%.
With `COc1cc(SC)ccc1C(=O)NCC1(N(C)C)CCCCC1` the activity change, negative = inhibition was inactive: 5.36%.
In the case of `CN(C)C1(CNC(=O)c2cccc(Cl)c2)CCCCC1`, the activity change, negative = inhibition is reported as inactive: 0.064%.
With `CCN(CC)CC(C)C(C)OC(=O)C(O)(c1ccccc1)c1ccccc1` (stereo unspecified) the activity change, negative = inhibition was inactive: -1.23%.
With `CC(C)N1C(=O)CC2(CCN(CCOC(=O)C(O)(c3ccccc3)c3ccccc3)CC2)C1=O` the activity change, negative = inhibition was inactive: -1.85%.
In the case of `Cc1ccc(C(=O)NCC2(N3CCCCC3)CCCCC2)cc1`, the activity change, negative = inhibition is reported as inactive: 6.5%.
For `CN(C)C1(CNC(=O)c2ccccc2F)CCCCC1`, the activity change, negative = inhibition was inactive: 8.59%.
For `CN(C)C1CCCC1OC(=O)C(O)(c1ccccc1)c1ccccc1` (stereo unspecified), the activity change, negative = inhibition was inactive: -18.1%.
In the case of `CN(C)c1ccc(C(=O)NCC2(N(C)C)CCCCC2)cc1`, the activity change, negative = inhibition is reported as inactive: -0.634%.
For `CN(C)C1(CNC(=O)c2ccccc2[N+](=O)[O-])CCCCC1`, the activity change, negative = inhibition was inactive: 1.77%.
With `Cc1ccccc1C(=O)NCC1(N2CCCCC2)CCCCC1` the activity change, negative = inhibition was inactive: -3.65%.
In the case of `CCCCOc1ccccc1C(=O)NCC1(N(C)C)CCCCC1`, the activity change, negative = inhibition is reported as inactive: 2.11%.
With `O=C(NCC1(N2CCCCC2)CCCCC1)c1cc(F)c(F)cc1Cl` the activity change, negative = inhibition was inactive: -10.4%.
For `C=CCN1CCN(CCOC(=O)C(O)(c2ccccc2)c2ccccc2)CC1`, the activity change, negative = inhibition was inactive: 20.8%.
With `CCOc1cccc(C(=O)NCC2(N(C)C)CCCCC2)c1` the activity change, negative = inhibition was inactive: -20.2%.
In the case of `COc1ccc(C(=O)NCC2(N(C)C)CCCCC2)cc1`, the activity change, negative = inhibition is reported as inactive: 3.54%.
For `O=C(NCC1(N2CCCCC2)CCCCC1)c1cccc(Br)c1`, the activity change, negative = inhibition was inactive: -4.98%.
In the case of `Cc1cc(C(=O)NCC2(N3CCCCC3)CCCCC2)ccc1[N+](=O)[O-]`, the activity change, negative = inhibition is reported as inactive: 4.2%.
For `CCN1CCCC(OC(=O)C2(O)c3ccccc3C=Cc3ccccc32)C1` (stereo unspecified), the activity change, negative = inhibition was inactive: 8.44%.
